The results in this text go back to patent US20040191303A1, “Use of selectin-binding pregnancy proteins, liposomes, native mucin fragments and mimetic compounds for the treatment and prophylaxis inflammatory diseases, for preventing metastatic spread and for the prophylaxis of tumour diseases” (priority 2000, published 2004).

In assay [1] the test system is cell adhesion. Nature of the assay: Testing of gestation proteins from various sources as adhesion blocker. It is filed as cell-based. An excerpt:
Testing of Gestation Proteins from Various Sources as Adhesion Blocker
The trophoblast culture line has been purchased and not subjected to genetic engineering. Isolation is effected in analogy to the production of gestation proteins of Examples 1 to 3.

Assay [2] has as its target T1, E-selectin (Homo sapiens, UniProt P16581).
T1 construct: purchased R & D Systems
T1 sequence (P16581 22-610): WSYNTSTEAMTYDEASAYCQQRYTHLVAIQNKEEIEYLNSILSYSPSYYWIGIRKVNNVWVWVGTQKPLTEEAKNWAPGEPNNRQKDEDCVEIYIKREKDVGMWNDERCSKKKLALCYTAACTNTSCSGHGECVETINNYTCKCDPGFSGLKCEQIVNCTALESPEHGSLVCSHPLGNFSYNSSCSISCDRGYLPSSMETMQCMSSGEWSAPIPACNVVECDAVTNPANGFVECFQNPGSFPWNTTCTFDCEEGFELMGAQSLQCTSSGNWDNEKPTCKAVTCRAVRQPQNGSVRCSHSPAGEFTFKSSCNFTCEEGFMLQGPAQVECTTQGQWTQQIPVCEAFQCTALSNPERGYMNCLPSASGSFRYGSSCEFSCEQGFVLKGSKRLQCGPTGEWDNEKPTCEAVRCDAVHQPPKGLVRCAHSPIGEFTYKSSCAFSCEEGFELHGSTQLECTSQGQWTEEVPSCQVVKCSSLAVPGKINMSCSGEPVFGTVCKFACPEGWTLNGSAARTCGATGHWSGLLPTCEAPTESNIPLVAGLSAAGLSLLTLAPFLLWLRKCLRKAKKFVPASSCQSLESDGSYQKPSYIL
The assay can be described thus: Adhesion inhibition test: HepG2 hepatoma cells to immobilized recombinant E-selectin. In kind it is cell-based. As to the method: (§1) The adhesion test described below is used in vitro to test the active substances. To this end, either recombinant E-selectin is immobilized on 96-well titer plates, or the expression of E-selectin on activated endothelial cells from veins of human umbilical cords (HUVEC) is induced by stimulation with cytokines. Culturing of HUVEC endothelial cells is also performed in 96-well microtiter plates.
(§2) E-selectin (R & D Systems) (5 μg/ml) is immobilized by incubating at 4° C. over-night. The plates are washed with a calcium-containing phosphate buffer (Ca-PBS) and blocked with 1% bovine serum albumin (BSA) for 1 hour at room temperature. Amniotic hCG (0.005-1 nmol/well) is added and pre-incubated for 30 minutes at room temperature. Thereafter, 1×10^5 51Cr-labelled HepG2 hepatoma cells adhering to E-selectin are added, and this is incubated for another 30 minutes at room temperature. Subsequently, the unbound cells are removed by washing 3 times with Ca-PBS, and the bound cells, following lysis with 0.1 N sodium hydroxide solution, are quantified by means of radioactivity measurement. As controls, the carbohydrate-binding domain of E-selectin-blocking monoclonal antibody BBA2 (R & D Systems), EDTA to remove Ca from the test system, and the monovalent tetrasaccharide sialyl-Lewis x (sLe^x) binding selectively but with low affinity are used and carried along in parallel in the test series.
(§3) The IC50 values (concentration of inhibiting agent for 50% inhibition of adhesion) are indicated.

Assay [3] deals with activated HUVEC. The assay can be described thus: Adhesion inhibition test: HepG2 hepatoma cells to IL-1β activated HUVEC. It is filed as cell-based, human. As to conditions: HepG2 cell adhesion. The protocol: as §1, §2
HUVECs are isolated from veins of fresh human umbilical cords, used up to the 3rd passage, and cultured to confluence in 96-well titer plates for testing. Expression on HUVEC is induced by adding 0.2 ng of IL-1β per well, reaching its maximum after 4 hours. At this point, an adhesion test/adhesion inhibition test analogous to the one for immobilized E-selectin is performed.
as §3

[4] abbreviates: HepG2 cell adhesion, concentration of inhibiting agent for 50% inhibition of adhesion.

As to “Urinary hCG: human chorionic gonadotropin from urine of pregnant women”, the Adhesion blocking entry in assay [1] is “No”. Also, the “Immobilized E-selectin IC50” value in assay [2] (setting [4]) is on record as “None”. For the same substance, the “Activated HUVEC IC50” value in assay [3] is “None”.

As a reminder, the IC50 is the concentration needed to halve the response being measured. As to “Amniotic hCG: human chorionic gonadotropin isolated from amniotic fluid”, the Adhesion blocking result in assay [1] is “Yes”. The figures for the half-inhibitory concentration (IC50) in assay [2] (setting [4]) and in assay [3] were 62 nM and 150 nM, respectively.

As to “Serum hCG: human chorionic gonadotropin isolated from pooled serum of pregnant women in the first trimenon”, the Adhesion blocking entry in assay [1] was “Yes”. In addition, the values for the IC50 in assay [2] (setting [4]) and in assay [3] were 340 nM and 180 nM, respectively. The “effect, times less compared to amniotic hCG” value in assay [2] (adhesion inhibition test following Example 1b) was “about 3 times”. Besides, the “times more effective than sLe^x” value in assay [2] (adhesion inhibition, relative to monovalent tetrasaccharide sLe^x) was 10^4 times.

Consider “Jeg3 hCG: hCG from trophoblast cell line Jeg3”, for which the Adhesion blocking entry in assay [1] is “Yes”. Also, the IC50 in assay [2] (setting [4]) stood at 140 nM; in assay [3] it was 100 nM.
